Data: patent US20150118229A1, “JAK1 SELECTIVE INHIBITOR AND USES THEREOF” (ABBVIE INC., priority 2013, published 2015)

Experiments:
[1] = clinical; conditions: human, plasma, oral
[2] = Human PK, multiple ascending dose Study M13-845 Substudy 1; conditions: in vivo, oral

In the case of `CC[C@@H]1CN(C(=O)NCC(F)(F)F)C[C@@H]1c1cnc2cnc3[nH]ccc3n12` [Compound 1, (3S,4R)-3-ethyl-4-(3H-imidazo[1,2-a]pyrrolo[2,3-e]pyrazin-8-yl)-N-(2,2,2-trifluoroethyl)pyrrolidine-1-carboxamide], the half-life ([1]; 3 mg, t1/2, Japanese, single dose 3 mg, harmonic mean (pseudo % CV), not a robust estimate) is reported as 6.1 h, the half-life ([1]; 18 mg, t1/2, Chinese, 18 mg BID, Day 14, harmonic mean (pseudo % CV)) is reported as 6.88 h and the half-life ([1]; 24 mg, t1/2, Japanese, single dose 24 mg, harmonic mean (pseudo % CV)) is reported as 14 h. It also gave a half-life ([2]; 12 mg BID, Day 14, harmonic mean (pseudo % CV), Western subjects, read-out: t1/2 (converted)) of 7.59 h, a half-life ([2]; 24 mg BID, Day 14, harmonic mean (pseudo % CV), Western subjects, read-out: t1/2 (converted)) of 8.01 h and a half-life ([2]; following the last dose on Day 14, read-out: t½ of elimination phase) of 8 to 16 h.
